Test results from PMC11073612 (Nature structural & molecular biology, 2022).

How the values were obtained:
[1] = test system: SSTR2 Q187S; experiment: BRET-based Gi3 activation assay, SSTR2 Q187S; format: cell-based; settings: HEK-293S
[2] = test system: SSTR2 with ECL3/TM7 of SSTR4; experiment: BRET-based Gi3 activation assay, SSTR2 with ECL3/TM7 of SSTR4; format: cell-based; settings: HEK-293S, n=3
[3] = test system: SSTR2 N186G; experiment: BRET-based Gi3 activation assay, SSTR2 N186G; format: cell-based; settings: HEK-293S, n=3 biological replicates
[4] = test system: SSTR1–5; settings: cited from earlier work
[5] = test system: SSTR2 with ECL3/TM7 of SSTR1; experiment: BRET-based Gi3 activation assay, SSTR2 with ECL3/TM7 of SSTR1; format: cell-based; settings: HEK-293S, n=3
[6] = test system: SSTR5 over SSTR2; settings: reported; no reference printed with the value; cited from earlier work
[7] = test system: SSTR2 ECL2+/4 (entire ECL2 from SSTR4); experiment: BRET-based Gi3 activation assay, SSTR2 ECL2+/4 chimera; format: cell-based; settings: HEK-293S, n=3
[8] = test system: SSTR2 W188G; settings: Gi3 BRET, HEK-293S, n=3 biological replicates
[9] = test system: SSTR1 S305^7.35F and Q291^6.55N; settings: S305^7.35F and Q291^6.55N in SSTR1; cited from earlier work
[10] = test system: SSTR1 Q291^6.55N; settings: Q291^6.55N alone; cited from earlier work

SST14: endogenous 14-residue somatostatin peptide (Cayman, 20809)
Gi3 response and ligand selectivity compared to wild-type [1]: identical Gi3 response and ligand selectivity compared to wild-type | G protein activation (effect of ECL3 exchange) [2]: completely abolished G protein activation | selectivity for SST14 over octreotide (EC50 ratio vs wild-type) [3]: increased selectivity for SST14 over octreotide | affinity across SSTR subtypes ([4]; all SSTR subtypes, no reference printed with the statement): nearly identical affinity | G protein activation (effect of ECL3 exchange) [5]: completely abolished G protein activation

pasireotide
improved binding to SSTR5 over SSTR2 [6]: 50 fold

octreotide
ligand selectivity of ECL2+/4 swap [7]: selected against octreotide | Gi3 response and ligand selectivity compared to wild-type [1]: identical Gi3 response and ligand selectivity compared to wild-type | G protein activation (effect of ECL3 exchange) [2]: completely abolished G protein activation | ligand selectivity, SST14 vs octreotide (EC50 ratio vs wild-type) [8]: altered selectivity to be unfavorable to octreotide | octreotide binding after SSTR1 double mutation [9]: near-SSTR2 levels of octreotide binding | subtype selectivity [4]: SSTR2-selective | improvement of octreotide binding to SSTR1 [10]: does little to improve octreotide binding to SSTR1 | G protein activation (effect of ECL3 exchange) [5]: completely abolished G protein activation
